{
  "source": "paper PMC11579512",
  "about": "“Deoxybouvardin-glucoside induces apoptosis in non-small cell lung cancer cells by targeting EGFR/MET and AKT signaling pathway” (EXCLI Journal, 2024)",
  "test_system": "HCC827 cells",
  "experiment": "Soft agar anchorage-independent growth, HCC827",
  "assay_type": "cell-based, human",
  "conditions": "2 weeks; GEF 1 μM, SAV 2 nM or both",
  "description": "The anchorage-independent cell growth assay was performed in 6-well plates with dual agar layers containing 0.6 % agar (lower layer) and 0.3 % agar (upper layer) supplemented with BME, 2 mM L-glutamine, 5 μg/ml gentamicin, and 10 % FBS. After 2 weeks of incubation, the number of colonies was assessed using a microscope (Leica, Wetzlar, Germany), and the mean colony area was analyzed using i-Solution ^TM software (Vancouver, BC, Canada).",
  "data": [
    {"smiles": "COc1cc2ncnc(Nc3ccc(F)c(Cl)c3)c2cc1OCCCN1CCOCC1", "note": "[GEF, gefitinib, reference compound]", "values": [
      {"measurement": "colony formation, in words", "value": "did not form any colonies"}
    ]}
  ]
}
